Earlier results, collected in patent publication US10167258B2, “Inhibitors of mitochondrial pyruvate dehydrogenase kinase isoforms 1-4 and uses thereof” (The Board of Regents of the University of Texas System, priority 2013, dated 2019).

System: Hsp90
Details: read-out: IC50 for Hsp90; literature value; cited from earlier work

Q: Which IC50 does the source give for `Oc1ccc(-c2n[nH]c(=S)n2-c2cccc3ccccc23)c(O)c1` here?
A: 300 nM
